From ChEMBL document CHEMBL4495565, “Cytopathic SARS-Cov2 screening on VERO-E6 cells in a large repurposing effort” (2020)

Tested on: SARS-CoV-2
Assay: Antiviral activity determined as inhibition of SARS-CoV-2 induced cytotoxicity of VERO-6 cells at 10 uM after 48 hours exposure to 0.01 MOI SARS CoV-2 virus by high content imaging
Details: Chlorocebus sabaeus, Vero C1008

CN(CCCl)CCCl
inhibition: 0.22%
